In the experiment the target is D(2) dopamine receptor (Rattus norvegicus, UniProt P61169). The experiment can be described thus: In vitro effective concentration tested on HEK293 cells co-transfected with rat Dopamine receptor D2 using FLIPR assay. In kind it is cell-based.

Amino acid sequences for entries named in this document (tags omitted).
UniProt P61169, whole entry: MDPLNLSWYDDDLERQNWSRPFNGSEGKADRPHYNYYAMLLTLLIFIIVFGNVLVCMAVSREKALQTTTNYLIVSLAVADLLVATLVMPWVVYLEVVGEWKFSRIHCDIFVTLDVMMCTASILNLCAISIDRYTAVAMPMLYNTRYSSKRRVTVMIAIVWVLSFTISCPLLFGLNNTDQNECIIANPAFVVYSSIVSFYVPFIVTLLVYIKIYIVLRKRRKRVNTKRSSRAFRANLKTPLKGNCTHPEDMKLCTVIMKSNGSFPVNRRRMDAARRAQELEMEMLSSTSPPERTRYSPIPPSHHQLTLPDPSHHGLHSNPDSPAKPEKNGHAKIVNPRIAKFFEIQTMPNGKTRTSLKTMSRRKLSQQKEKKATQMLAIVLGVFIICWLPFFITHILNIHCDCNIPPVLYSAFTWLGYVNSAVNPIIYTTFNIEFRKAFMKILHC

As to `CN1CCc2cccc3c2[C@H]1Cc1ccc(O)c(O)c1-3` [APOMORPHINE], a half-maximal effect (EC50) was put at 400 pM.

A word on the EC50: it is the midpoint of the concentration-response curve.
